Ki data for one molecule are collected here from US20110142757A1, “NOVEL COMPOUNDS AND THEIR USES IN DIAGNOSIS” (the University of Sydney, priority 2008, published 2011).

Sequences of proteins named here, by UniProt entry; tags and fusion partners are left off.
UniProt P30536, whole entry: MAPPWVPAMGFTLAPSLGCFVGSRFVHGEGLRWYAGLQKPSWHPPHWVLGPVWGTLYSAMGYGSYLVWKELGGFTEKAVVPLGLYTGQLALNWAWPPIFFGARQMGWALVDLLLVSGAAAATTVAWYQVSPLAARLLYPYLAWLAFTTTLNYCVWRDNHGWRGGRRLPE

Broadly, the Ki is the equilibrium dissociation constant of an inhibitor or competing ligand from its target.

For this assay, the target named is T1, human TSPO (Homo sapiens, UniProt P30536).
T1 construct: expressed in transfected cells; host or cells: HEK293, mitochondrial fraction
Briefly: [3H]PK11195 competition binding assay, mitochondrial membranes of HEK293 cells transfected with human TSPO. The note with it: competition with 6 nM [3H]PK11195, one-site or two-site competition fit, read-out: Binding Affinity (Ki) ± Standard Error, Site 1. The text has this:
Radioligand Binding Experiments Using [^3H]PK11195
Cell Culture and Membrane Preparation
Human embryonic kidney cells (HEK293) were transfected with human TSPO as described previously (Riond, J., Mattei, M. G., Kaghad, M., Dumont, X., Guillemot, J. C., Le Fur, G., Caput, D., Ferrara, P. (1991) Molecular cloning and chromosomal localization of a human peripheral-type benzodiazepine receptor. Eur. J. Biochem. 195, 305-311; Vin, V., Leducq, N., Bono, F., Herbert, J. M. (2003) Binding characteristics of SSR180575, a potent and selective peripheral benzodiazepine receptor ligand. Biochem. Biophys. Res. Comm. 310, 785-790). […]
The mitochondrial fraction of the cells was obtained by homogenising the cell pellet in three volumes of 50 mM Tris-HCl (pH 7.5), containing 0.33 M sucrose, 1 mM MgCl2, and 25 mM KCl (Solution, 1). […] The resultant pellet was, then resuspended in an appropriate amount of reaction buffer (50 mM Tris-HCl, pH 7.5), and protein concentration determined using a Bio-Rad Lowry Protein Assay Kit. […]
After incubation, assays were terminated by rapid filtration through a 96-well filter plate in ice-cold incubation buffer (50 mM Tris-HCl, pH 7.5), and washed 10 times with 200 μl of ice-cold incubation buffer, using a Brandel 96-sample vacuum harvester. […] Data was analysed and fit to a curve using GraphPad Prism 5.0.

Each structure is given as a SMILES string.

Turning to `CCC(C)N(C)C(=O)c1cc2ccccc2c(-c2ccccc2Cl)n1` (stereo not shown) [PK11195], the Ki amounted to 6.08 ± 0.33 nM.
